Values joined by “and” are separate entries in the source; they are usually repeats but may differ in a detail not shown here. Identical values can stand only once.
Assays:
[1] = biological target: SaHepPPS (S. aureus heptaprenyl diphosphate synthase) (Staphylococcus aureus, UniProt Q2FYG6); assay: HepPPS enzyme inhibition assay; assay type: biochemical; details: IC50 against SaHepPPS
human GGPPS = details: read-out: IC50 human GGPPS; cited from earlier work

Amino acid sequences for entries named in this document (tags omitted). A change or cut given only in a name is not applied to a line headed by its entry.
UniProt Q2FYG6: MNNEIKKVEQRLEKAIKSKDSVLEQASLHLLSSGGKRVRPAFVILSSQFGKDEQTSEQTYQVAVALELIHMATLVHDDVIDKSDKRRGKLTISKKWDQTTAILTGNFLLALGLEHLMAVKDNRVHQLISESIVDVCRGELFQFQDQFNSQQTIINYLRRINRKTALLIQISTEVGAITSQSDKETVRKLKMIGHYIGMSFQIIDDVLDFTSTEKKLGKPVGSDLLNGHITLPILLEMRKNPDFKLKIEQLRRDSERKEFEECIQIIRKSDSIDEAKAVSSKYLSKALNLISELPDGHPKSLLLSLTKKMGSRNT

For CC(C)CCCC(C)CCOc1ccc[n+](CC(P(=O)([O-])O)P(=O)(O)O)c1 (centres unmarked) [Compound 74, Hydrogen(2-(3-((3,7-dimethyloctyl)oxy)pyridin-1-ium-1-yl)-1-phosphonoethyl) phosphonate], the IC50 [1] was 0.1 µM and ~0.1 µM and 0.01 to 0.1 µM.

In the case of O=P(O)(O)C(O)(Cn1ccnc1)P(=O)(O)O [Compound 24, zoledronate], the IC50 (human GGPPS) is listed as about 100 µM.
